Source: patent US20060168675A1, “Novel polypetide having function of 7-keto-8-aminopelargonic acid synthase of plant and method for inducing growth inhibition and lethality by suppressing expression of the polypeptide” (GENOMINE, INC, priority 2002, published 2006)

Test system: transgenic Arabidopsis thaliana comprising antisense construct of AtKAPAS gene
Settings: pots filled with sands containing 1 mM biotin; Basta treated 5 times
Procedure: The pots were treated with Basta 5 times, and then investigated for the growth of Arabidopsis thaliana in every pot.

`O=C(O)CCCC[C@@H]1SC[C@@H]2NC(=O)N[C@@H]21` [biotin] was tested, and the “Phenotype of grown plants” value was “not much different from that of wild type Arabidopsis thaliana”.
